Protein sequences, listed by entry. Tags and fused reporters are not part of them.
UniProt O60502, whole entry: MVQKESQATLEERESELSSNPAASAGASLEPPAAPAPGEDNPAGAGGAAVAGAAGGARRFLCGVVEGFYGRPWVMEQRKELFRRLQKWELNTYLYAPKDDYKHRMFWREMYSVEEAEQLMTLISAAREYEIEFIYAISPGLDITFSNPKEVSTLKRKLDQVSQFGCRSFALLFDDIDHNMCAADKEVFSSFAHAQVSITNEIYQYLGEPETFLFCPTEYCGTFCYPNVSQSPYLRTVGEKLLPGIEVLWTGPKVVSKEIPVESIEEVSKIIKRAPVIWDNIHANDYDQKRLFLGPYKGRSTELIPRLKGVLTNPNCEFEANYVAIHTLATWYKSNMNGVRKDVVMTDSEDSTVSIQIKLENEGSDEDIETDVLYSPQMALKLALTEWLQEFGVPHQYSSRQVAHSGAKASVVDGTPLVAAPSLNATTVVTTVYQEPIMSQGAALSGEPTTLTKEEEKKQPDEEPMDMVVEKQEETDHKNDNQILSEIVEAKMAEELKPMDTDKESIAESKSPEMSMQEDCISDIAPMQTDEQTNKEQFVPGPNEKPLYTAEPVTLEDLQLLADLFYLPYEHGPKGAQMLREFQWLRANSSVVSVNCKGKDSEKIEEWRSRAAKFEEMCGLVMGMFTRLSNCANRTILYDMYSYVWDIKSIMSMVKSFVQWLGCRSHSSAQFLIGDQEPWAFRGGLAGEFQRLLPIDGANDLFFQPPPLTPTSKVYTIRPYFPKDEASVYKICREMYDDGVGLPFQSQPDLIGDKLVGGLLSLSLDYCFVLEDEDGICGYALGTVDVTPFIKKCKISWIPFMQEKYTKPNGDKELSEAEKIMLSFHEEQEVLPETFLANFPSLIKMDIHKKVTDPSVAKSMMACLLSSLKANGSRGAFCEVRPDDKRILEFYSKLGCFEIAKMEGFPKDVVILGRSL

In patent US20210300900A1, “OGA INHIBITOR COMPOUNDS” (Janssen Pharmaceutica NV, priority 2018, published 2021):

Legend:
[1] = molecular target: recombinant human Meningioma Expressed Antigen 5 (MGEA5), also referred to as O-GcNAcase (OGA) (Homo sapiens, UniProt O60502); test: OGA biochemical assay (inhibition of FM-GlcNAc hydrolysis, fluorescence); conditions: FM-GlcNAc substrate
Description: The assay is based on the inhibition of the hydrolysis of fluorescein mono-β-D-N-Acetyl-Glucosamine (FM-GlcNAc) (Mariappa et al. 2015, Biochem J 470:255) by the recombinant human Meningioma Expressed Antigen 5 (MGEA5), also referred to as O-GcNAcase (OGA). The hydrolysis FM-GlcNAc (Marker Gene technologies, cat #M1485) results in the formation of B-D-N-glucosamineacetate and fluorescein. The fluorescence of the latter can be measured at excitation wavelength 485 nm and emission wavelength 538 nm. An increase in enzyme activity results in an increase in fluorescence signal. Full length OGA enzyme was purchased at OnGene (cat #TP322411). The enzyme was stored in 25 mM Tris.HCl, pH 7.3, 100 mM glycine, 10% glycerol at −20° C. Thiamet G and GlcNAcStatin were tested as reference compounds (Yuzwa et al. 2008 Nature Chemical Biology 4:483; Yuzwa et al. 2012 Nature Chemical Biology 8:393). The assay was performed in 200 mM Citrate/phosphate buffer supplemented with 0.005% Tween-20. 35.6 g Na2HPO4 2H2O (Sigma, #C0759) were dissolved in 1 L water to obtain a 200 mM solution. 19.2 g citric acid (Merck, #1.06580) was dissolved in 1 L water to obtain a 100 mM solution. pH of the sodiumphosphate solution was adjusted with the citric acid solution to 7.2. The buffer to stop the reaction consists of a 500 mM Carbonate buffer, pH 11.0. 734 mg FM-GlcNAc were dissolved in 5.48 mL DMSO to obtain a 250 mM solution and was stored at −20° C. OGA was used at a 2 nM concentration and FM-GlcNAc at a 100 uM final concentration. Dilutions were prepared in assay buffer.
50 nl of a compound dissolved in DMSO was dispensed on Black Proxiplate TM 384 Plus Assay plates (Perkin Elmer, #6008269) and 3 μl fl-OGA enzyme mix added subsequently. Plates were pre-incubated for 60 min at room temperature and then 2 μl FM-GlcNAc substrate mix added. […] Plates were briefly centrifuged for 1 min at 1000 rpm and incubate at room temperature for 6 h. To stop the reaction 5 μl STOP buffer were added and plates centrifuge again 1 min at 1000 rpm. Fluorescence was quantified in the Thermo Scientific Fluoroskan Ascent or the PerkinElmer EnVision with excitation wavelength 485 nm and emission wavelength 538 nm.
For analysis a best-fit curve is fitted by a minimum sum of squares method. From this an IC50 value and Hill coefficient was obtained. High control (no inhibitor) and low control (saturating concentrations of standard inhibitor) were used to define the minimum and maximum values.

OGA = OGA (Homo sapiens, UniProt O60502); test: OGA cellular assay (ICC detection of O-GlcNAcylated proteins in HEK293 cells inducible for P301L mutant human Tau); conditions: 6 hours incubation; for Cellular Emax (%): maximum = Thiamet G 200 uM
Description: HEK293 cells inducible for P301L mutant human Tau (isoform 2N4R) were established at Janssen. Thiamet-G was used for both plate validation (high control) and as reference compound (reference EC50 assay validation). OGA inhibition is evaluated through the immunocytochemical (ICC) detection of O-GlcNAcylated proteins by the use of a monoclonal antibody (CTD110.6; Cell Signaling, #9875) detecting O-GlcNAcylated residues as previously described (Dorfmueller et al. 2010 Chemistry & biology, 17:1250). Inhibition of OGA will result in an increase of O-GlcNAcylated protein levels resulting in an increased signal in the experiment. Cell nuclei are stained with Hoechst to give a cell culture quality control and a rough estimate of immediate compounds toxicity, if any. ICC pictures are imaged with a Perkin Elmer Opera Phenix plate microscope and quantified with the provided software Perkin Elmer Harmony 4.1.
Cells were propagated in DMEM high Glucose (Sigma, #D5796) following standard procedures. 2 days before the cell assay cells are split, counted and seeded in Poly-D-Lysine (PDL) coated 96-wells (Greiner, #655946) plate at a cell density of 12,000 cells per cm^2 (4,000 cells per well) in 100 μl of Assay Medium (Low Glucose medium is used to reduce basal levels of GlcNAcylation) (Park et al. 2014 The Journal of biological chemistry 289:13519). At the day of compound test medium from assay plates was removed and replenished with 90 μl of fresh Assay Medium. 10 μl of compounds at a 10 fold final concentration were added to the wells. Plates were centrifuged shortly before incubation in the cell incubator for 6 hours. DMSO concentration was set to 0.2%. Medium is discarded by applying vacuum. For staining of cells medium was removed and cells washed once with 100 μl D-PBS (Sigma, #D8537). From next step onwards unless other stated assay volume was always 50 μl and incubation was performed without agitation and at room temperature. Cells were fixed in 50 μl of a 4% paraformaldehyde (PFA, Alpha aesar, #043368) PBS solution for 15 minutes at room temperature. […] Before analysis samples were washed 2 times manually for 5 minutes in ICC base buffer.
Imaging is performed using Perkin Elmer Phenix Opera using a water 20×objective and recording 9 fields per well. Intensity readout at 488 nm is used as a measure of O-GlcNAcylation level of total proteins in wells. To assess potential toxicity of compounds nuclei were counted using the Hoechst staining. IC50-values are calculated using parametric non-linear regression model fitting. As a maximum inhibition Thiamet G at a 200 uM concentration is present on each plate. In addition, a concentration response of Thiamet G is calculated on each plate.

[2] = tested form: 2HCl, listed as 88
[3] = tested form: 2HCl, listed as 89

Cc1cc(C[C@H]2CCCN(C(C)c3cccc(OC(C)C)n3)C2)cc(C)n1 (stereo partly shown)
Enzymatic Emax (%) [1]: 51% | Enzymatic hOGA; pIC50 [1]: 5.02

COc1ccc(F)c(C(C)N2CC[C@H](Cc3ncc(C)nc3C)C2)n1 (single isomer, unassigned)
Enzymatic Emax (%) ([1]; listed as 114): 9% | Enzymatic hOGA; pIC50 ([1]; listed as 114): <5 | Enzymatic Emax (%) ([1]; listed as 115): 88% | Enzymatic hOGA; pIC50 ([1]; listed as 115): 5.72

COc1cccc([C@H](C)N2CCC[C@H](CNc3cc(C)nc(C)c3)C2)n1 (relative stereo)
Cellular Emax (%) (OGA; tested form: 2HCl): 74% | Cellular hOGA; pEC50 (OGA; tested form: 2HCl): 7.1 | Enzymatic Emax (%) ([1]; tested form: 2HCl): 102% | Enzymatic hOGA; pIC50 ([1]; tested form: 2HCl): 7.39

CNC(=O)c1cncc(CN2CCC[C@H](Cc3cc(C)nc(C)c3)C2)c1
Cellular Emax (%) (OGA; tested form: 2HCl): 11% | Cellular hOGA; pEC50 (OGA; tested form: 2HCl): <6 | Enzymatic Emax (%) ([1]; tested form: 2HCl): 98% | Enzymatic hOGA; pIC50 ([1]; tested form: 2HCl): 6.58

CC(=O)Nc1cc([C@H](C)N2CC[C@H](Cc3ncc(C)nc3C)C2)n[nH]1
Enzymatic Emax (%) [1]: 20% | Enzymatic hOGA; pIC50 [1]: <5

CC(=O)Nc1cc([C@H](C)N2CCC[C@H](Cc3cc(C)nc(C)c3)C2)nn1C
Enzymatic Emax (%) [1]: 101% | Enzymatic hOGA; pIC50 [1]: 7.91

COc1ccc(C[C@H]2CCN([C@H](C)c3cccc(OC)n3)C2)cn1
Enzymatic Emax (%) [1]: 43% | Enzymatic hOGA; pIC50 [1]: <5

COc1cc(NCC2CCCN(C(C)c3cccc(OC)n3)C2)cc(C)n1 (single isomer, unassigned)
Cellular Emax (%) (OGA; tested form: 2HCl): 73% | Cellular hOGA; pEC50 (OGA; tested form: 2HCl): 6.85 | Enzymatic Emax (%) [1, 2]: 32% | Enzymatic hOGA; pIC50 [1, 2]: <5 | Enzymatic Emax (%) [1, 3]: 102% | Enzymatic hOGA; pIC50 [1, 3]: 7.6

COc1cccc([C@@H](C)N2CCC[C@H](CNc3cc(C)nc(C)c3)C2)n1 (relative stereo)
Enzymatic Emax (%) ([1]; tested form: 2HCl): 35% | Enzymatic hOGA; pIC50 ([1]; tested form: 2HCl): <5

CC(=O)Nc1cc(C(C)N2CC[C@@H](Cc3cc(C)nc(C)c3)C2)n[nH]1 (single isomer, unassigned)
Enzymatic Emax (%) ([1]; listed as 105): 89% | Enzymatic hOGA; pIC50 ([1]; listed as 105): 5.94 | Enzymatic Emax (%) ([1]; listed as 106): 29% | Enzymatic hOGA; pIC50 ([1]; listed as 106): <5

COc1ccc(C(C)N2CCC[C@H](Cc3cc(C)nc(C)c3)C2)nc1 (stereo partly shown)
Enzymatic Emax (%) [1]: 101% | Enzymatic hOGA; pIC50 [1]: 6.79

COc1cc(C[C@H]2CCCN([C@@H](C)c3cc(NC(C)=O)[nH]n3)C2)cc(C)n1
Cellular hOGA; pEC50 (OGA): 7.09 | Cellular Emax (%) (OGA): 86% | Enzymatic Emax (%) [1]: 104% | Enzymatic hOGA; pIC50 [1]: 8.12

CC(=O)Nc1cncc(C(C)N2CCC[C@H](Cc3cc(C)nc(C)c3)C2)c1 (stereo partly shown)
Cellular hOGA; pEC50 (OGA): <6 | Cellular Emax (%) (OGA): 23% | Enzymatic Emax (%) [1]: 102% | Enzymatic hOGA; pIC50 [1]: 7.87

COc1ccc(C[C@H]2CCN(C(C)c3cccc(OC)n3)C2)cn1 (stereo partly shown)
Enzymatic Emax (%) [1]: 39% | Enzymatic hOGA; pIC50 [1]: <5

CC(=O)Nc1cc(C(C)N2CCC[C@H](Cc3cc(C)nc(C)c3)C2)nn1C (stereo partly shown)
Cellular hOGA; pEC50 (OGA): <6 | Cellular Emax (%) (OGA): 13% | Enzymatic Emax (%) [1]: 102% | Enzymatic hOGA; pIC50 [1]: 7.58

CC(=O)Nc1cncc([C@@H](C)N2CCC[C@H](Cc3cc(C)nc(C)c3)C2)c1
Enzymatic Emax (%) [1]: 67% | Enzymatic hOGA; pIC50 [1]: 5.3

COc1ccc(F)c(C(C)N2CC[C@H](Cc3ncc(F)cc3F)C2)n1 (single isomer, unassigned)
Enzymatic Emax (%) ([1]; listed as 107): 48% | Enzymatic hOGA; pIC50 ([1]; listed as 107): 5.03 | Enzymatic Emax (%) ([1]; listed as 108): 6% | Enzymatic hOGA; pIC50 ([1]; listed as 108): <5

CC(=O)Nc1cc([C@@H](C)N2CC[C@H](Cc3ncc(C)nc3C)C2)n[nH]1
Enzymatic Emax (%) [1]: 97% | Enzymatic hOGA; pIC50 [1]: 6.54

CC(=O)Nc1cncc([C@H](C)N2CCC[C@H](Cc3cc(C)nc(C)c3)C2)c1
Cellular hOGA; pEC50 (OGA): 6 | Cellular Emax (%) (OGA): 40% | Enzymatic Emax (%) [1]: 101% | Enzymatic hOGA; pIC50 [1]: 8.08

COc1cccc(C(C)N2CCC(Cc3ccc(F)nc3)C2)n1 (single isomer, unassigned)
Enzymatic hOGA; pIC50 [1]: <5 | Enzymatic Emax (%) ([1]; listed as 156): 31% | Enzymatic Emax (%) ([1]; listed as 157): 16%

COc1cc(C[C@H]2CCCN([C@H](C)c3cc(NC(C)=O)[nH]n3)C2)cc(C)n1
Enzymatic Emax (%) [1]: 85% | Enzymatic hOGA; pIC50 [1]: 5.71

CC(=O)Nc1cc([C@@H](C)N2CCC[C@H](Cc3cc(C)nc(C)c3)C2)nn1C
Enzymatic Emax (%) [1]: 58% | Enzymatic hOGA; pIC50 [1]: 5.16
